Assay results published in article PMC11116815.

Chains of the proteins cited; added tags and fusions are not shown.
UniProt P37288, whole entry: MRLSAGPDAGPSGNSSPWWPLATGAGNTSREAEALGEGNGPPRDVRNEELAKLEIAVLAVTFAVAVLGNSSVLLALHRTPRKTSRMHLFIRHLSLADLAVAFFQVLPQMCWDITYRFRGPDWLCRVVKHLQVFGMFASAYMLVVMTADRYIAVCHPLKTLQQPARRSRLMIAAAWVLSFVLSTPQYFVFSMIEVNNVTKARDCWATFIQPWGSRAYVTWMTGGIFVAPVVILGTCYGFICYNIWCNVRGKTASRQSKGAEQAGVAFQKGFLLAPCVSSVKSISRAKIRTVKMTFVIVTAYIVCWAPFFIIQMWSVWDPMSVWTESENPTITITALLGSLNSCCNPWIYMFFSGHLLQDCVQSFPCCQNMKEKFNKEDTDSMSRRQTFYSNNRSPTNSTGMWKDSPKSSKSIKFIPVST

How the values were obtained:
[1] = target: arginine vasopressin receptor 1A (AVPR1A) (human (endogenous in THP-1 and human monocytes)) (UniProt P37288)
[2] = target: arginine vasopressin receptor 1A (AVPR1A) (human (endogenous in THP-1 and human monocytes)) (UniProt P37288); remark: listed apart in the source

**Q.** With arginine vasopressin (aVP) (peptide) as the substance, how does the EC50 of aVP to enhance CCL23-induced (0.1 nmol/liter) chemotaxis of human monocytes [1] read?
**A.** 7 nM

**Q.** What about the IC50 of aVP for inhibition of CCL2-induced (10 nmol/liter) chemotaxis of freshly isolated human monocytes [1] of the same substance?
**A.** 1 nM

**Q.** And the enhancement by aVP (various concentrations) of CCL23-induced chemotaxis of human monocytes [1]?
**A.** 275%

**Q.** And the inhibition by aVP (various concentrations) of CCL2-induced chemotaxis of human monocytes [1]?
**A.** 74%

**Q.** What about the EC50 of aVP to enhance CCR1-mediated (CCL23-induced) chemotaxis of THP-1 cells; heteromer concerned: AVPR1A:CCR1 [2] of the same substance?
**A.** 17 nM

**Q.** What about the IC50 of aVP for inhibition of chemotaxis of THP-1 cells toward CXCL12 (100 nmol/liter; CXCR4-mediated), transwell migration; heteromer concerned: AVPR1A:CXCR4 [2] of the same substance?
**A.** 0.25 nM

**Q.** What about the efficacy of aVP (various concentrations) to inhibit chemotaxis of THP-1 cells toward CCL2 (10 nmol/liter) [2] of the same substance?
**A.** > 60%

**Q.** And the efficacy of aVP (various concentrations) to inhibit chemotaxis of THP-1 cells toward CXCL12 (100 nmol/liter) [2]?
**A.** > 60%

**Q.** And the enhancement by aVP (various concentrations) of chemotaxis of THP-1 cells toward CCL23 (0.1 nmol/liter; CCR1-mediated), chemotactic index in percent of cells not exposed to aVP [2]?
**A.** 278%
